Binding signal data for 26 molecules are collected here from publication PMC7723054.

The other results are listed elsewhere or left out.

To fix the notation:
T1: CIRBP (Homo sapiens, UniProt Q14011 1-172)
T1 sequence: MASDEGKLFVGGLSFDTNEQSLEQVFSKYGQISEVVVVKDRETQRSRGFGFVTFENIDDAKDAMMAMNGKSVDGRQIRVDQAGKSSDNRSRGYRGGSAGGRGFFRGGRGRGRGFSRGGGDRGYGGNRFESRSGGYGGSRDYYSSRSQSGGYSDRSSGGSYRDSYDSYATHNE

T2: DHX36 (Homo sapiens, UniProt Q9H2U1 1-1008)
T2 sequence: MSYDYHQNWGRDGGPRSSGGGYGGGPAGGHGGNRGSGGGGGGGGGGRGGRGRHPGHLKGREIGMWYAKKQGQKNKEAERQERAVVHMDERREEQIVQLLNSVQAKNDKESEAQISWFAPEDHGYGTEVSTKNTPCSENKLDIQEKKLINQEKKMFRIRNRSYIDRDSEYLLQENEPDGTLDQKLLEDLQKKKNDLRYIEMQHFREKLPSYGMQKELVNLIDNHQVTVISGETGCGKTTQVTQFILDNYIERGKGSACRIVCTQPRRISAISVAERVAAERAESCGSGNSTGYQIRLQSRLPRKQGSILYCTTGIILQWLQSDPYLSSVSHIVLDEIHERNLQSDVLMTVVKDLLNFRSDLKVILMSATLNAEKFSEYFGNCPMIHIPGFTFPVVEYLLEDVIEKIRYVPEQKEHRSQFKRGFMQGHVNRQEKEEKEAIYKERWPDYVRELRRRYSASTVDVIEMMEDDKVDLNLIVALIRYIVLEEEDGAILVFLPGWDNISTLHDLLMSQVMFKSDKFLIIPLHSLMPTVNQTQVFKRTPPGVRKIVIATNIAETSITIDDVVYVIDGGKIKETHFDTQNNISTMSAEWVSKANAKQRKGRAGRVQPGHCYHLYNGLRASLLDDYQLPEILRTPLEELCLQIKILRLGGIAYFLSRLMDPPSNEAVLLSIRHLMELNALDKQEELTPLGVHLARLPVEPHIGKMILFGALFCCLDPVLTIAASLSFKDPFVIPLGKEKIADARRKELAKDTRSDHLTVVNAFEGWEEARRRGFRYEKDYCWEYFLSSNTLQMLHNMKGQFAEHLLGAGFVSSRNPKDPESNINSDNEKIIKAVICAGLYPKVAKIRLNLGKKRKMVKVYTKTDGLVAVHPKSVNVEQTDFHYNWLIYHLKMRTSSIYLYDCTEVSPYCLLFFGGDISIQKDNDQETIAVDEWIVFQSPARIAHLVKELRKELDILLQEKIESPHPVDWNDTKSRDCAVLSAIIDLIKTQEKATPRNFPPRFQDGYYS

T3: LIN28A (human?, UniProt Q9H9Z2 1-209)
T3 sequence: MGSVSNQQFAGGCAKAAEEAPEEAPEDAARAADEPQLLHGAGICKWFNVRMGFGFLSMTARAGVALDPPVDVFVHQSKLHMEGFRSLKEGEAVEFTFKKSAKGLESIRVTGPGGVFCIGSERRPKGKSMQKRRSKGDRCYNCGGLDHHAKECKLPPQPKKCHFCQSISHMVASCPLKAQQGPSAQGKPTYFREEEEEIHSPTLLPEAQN

B1: hsa-mir-4780 (structured_RNA)
RNA: GGGAAAUGGAUAAUAACGAACUCGGAGCGGUGUACGAAGUUUCAGCGGACCAGCCCAAAGGCCAGGCCUGACCCGCUGAAGCUUCGUGCAC
B2: NEAT1_ParasoR_ID52 (structured_RNA)
RNA: GGGAACGGAUUAAGACCGUGCAUCAACUGGUGUACGAAGUUUCAGCGGCCCCCAGGGUCGCUGAAGCUUCGUGCAC
B3: hsa-mir-4670 (structured_RNA)
RNA: GGGAGCUUCCAUAAUAGCAGUCUCGUGUGGUGUACGAAGUUUCAGCUUCACAGACUCUCCAAAAGUCUGAAGCUGAAGCUUCGUGCAC
B4: hsa-mir-4449 (structured_RNA)
RNA: GGGAACGUGAGUACCGCGCACAUCUAAAGGUGUACGAAGUUUCAGCGGCGGGCGGCGGUGCCCGUCGCUGAAGCUUCGUGCAC
B5: hsa-mir-4520-2 (structured_RNA)
RNA: GGGAAAACUUCGGGGCUCCCGUACAUCUGGUGUACGAAGUUUCAGCCCAAAUCCUUUUCUGAUUUGGGCUGAAGCUUCGUGCAC
B6: hsa-mir-3916 (structured_RNA)
RNA: GGGAACAUGCCGUACUAGGCAGUCCCUUGGUGUACGAAGUUUCAGCUCAGGUGAAUGUGUCUGGGCUGAAGCUUCGUGCAC
B7: hsa-mir-4295 (structured_RNA)
RNA: GGGAAGCGCAGUAGGUGAUAUCCGUUCCGGUGUACGAAGUUUCAGCCCUUGCCUGUGGCAAGACCACUUCGGUUCAAGGGCUGAAGCUUCGUGCAC
B8: hsa-mir-4318 (structured_RNA)
RNA: GGGAAUAAAAGAAACGCGCUUACCAGACGGUGUACGAAGUUUCAGCUGUGGACAAGGGCCUUGUCUUAGACAGUCACUGCUGAAGCUUCGUGCAC
B9: hsa-mir-6744 (structured_RNA)
RNA: GGGAAUCCUGUAGAGGAUACCGACAAGAGGUGUACGAAGUUUCAGCGCCUCCUGGAUCUCUAGGUCUCAGGGCGCUGAAGCUUCGUGCAC
B10: hsa-mir-548aj-2 (structured_RNA)
RNA: GGGACCAAUGUACACGCCUGUCUCAGACGGUGUACGAAGUUUCAGCUUUGCUAUUACUUUUAAUGGUAAAGCUGAAGCUUCGUGCAC
B11: hsa-mir-513c (structured_RNA)
RNA: GGGAGUCUGCAUACCGAUUGCACCCGAAGGUGUACGAAGUUUCAGCUUUAUGUGAACUAAAAUAUAAAGCUGAAGCUUCGUGCAC
B12: hsa-mir-1914 (structured_RNA)
RNA: GGGAAGAAAAUUCCCAGCAAACUCCCCUGGUGUACGAAGUUUCAGCCUUCUGCUUCCUCUUAGCGCAGGAGGCUGAAGCUUCGUGCAC
B13: hsa-mir-548f-4 (structured_RNA)
RNA: GGGAAAAGCGCUUGAGUAGACCUACCACGGUGUACGAAGUUUCAGCUUUUGCCAUUAAAAGUAAUGACAAAAGCUGAAGCUUCGUGCAC
B14: hsa-mir-1269b (structured_RNA)
RNA: GGGACCAAACAUUCGUAUCUUCCCCACUGGUGUACGAAGUUUCAGCCUGGCUUCUCUGGUUCUCCAGCUUACAGGCUGAAGCUUCGUGCAC
B15: hsa-mir-1202 (structured_RNA)
RNA: GGGACAUAGGUUAAGAUAUGUCCCGAUCGGUGUACGAAGUUUCAGCGGAGGCACUGCCAGGGCUGCCCACGCUGAAGCUUCGUGCAC
B16: hsa-mir-8067 (structured_RNA)
RNA: GGGAAAUCCCACUCUCGCGUCAUGCAGUGGUGUACGAAGUUUCAGCUCAUAAAGAUGAUCGCUGAAGCUUCGUGCAC
B17: hsa-mir-6776 (structured_RNA)
RNA: GGGAAUCGUGAAGAAACGGUUCCCUGACGGUGUACGAAGUUUCAGCGGUUCCCACGCCGCGGCAACCGCUGAAGCUUCGUGCAC
B18: hsa-mir-2467 (structured_RNA)
RNA: GGGAACCACUCAGUUCGCUAAUCCAUAGGGUGUACGAAGUUUCAGCGGCUCUGGGUCCUGCUCCUUAGAGCAGCUGAAGCUUCGUGCAC
B19: hsa-mir-378b (structured_RNA)
RNA: GGGAAAUCGAUAACGUCGACCGAGCAUUGGUGUACGAAGUUUCAGCUAGUGGAAAGAGCACUGGCUGAAGCUUCGUGCAC
B20: PARIS_ID24 (structured_RNA)
RNA: GGGCAGUUAGGAGCCAGGUGGGGAUUCCGGUGUACGAAGUUUCAGCGGGAUCUCUUUUGCAUCCCGCUGAAGCUUCGUGCAC
B21: hsa-mir-3160-1 (structured_RNA)
RNA: GGGAACUGCCUCUCGGGUAACCAACAAAGGUGUACGAAGUUUCAGCCUCUCCUCCAGCUCAGCUGGUCAGGAGAGGCUGAAGCUUCGUGCAC
B22: hsa-mir-1200 (structured_RNA)
RNA: GGGACAUGUCUUCGAUCCAAUGGAAAGAGGUGUACGAAGUUUCAGCCCUCAAUCACUUGCCAGAGAGAUUGGGCUGAAGCUUCGUGCAC
B23: hsa-mir-1288 (structured_RNA)
RNA: GGGAACGAGACGCCCAUCCGUUACCUAGGGUGUACGAAGUUUCAGCCUCACCAUAGUGGUGGAGCUGAAGCUUCGUGCAC
B24: NEAT1_ParasoR_ID6 (structured_RNA)
RNA: GGGAACGUUGGCGGCCUAGAUUAAGACUGGUGUACGAAGUUUCAGCUACUAAAAUGUAGCUGAAGCUUCGUGCAC
B25: hsa-mir-1181 (structured_RNA)
RNA: GGGAACGAGGCUGACCUUGGGCAAUAGGGGUGUACGAAGUUUCAGCGCCGGAGCGGGCGCUGAAGCUUCGUGCAC
B26: hsa-mir-3622b (structured_RNA)
RNA: GGGAACAGGUUAUCCUUUGGACGCAAUCGGUGUACGAAGUUUCAGCGUGAGCUCAGCUCCCUGCCUCACGCUGAAGCUUCGUGCAC

The target of one experiment is T1, CIRBP. The experiment is described as follows: FOREST: bead pull-down of RNA structure library v1, barcode microarray; U1A/LIN28A: 20 mM HEPES pH 7.5, 80 mM KCl, 20 mM NaCl, 10% glycerol, 2 mM DTT, 0.1 ug/uL BSA, 4 C; BG4/CIRBP/DHX36: 10 mM Tris-HCl pH 7.5, 100 mM KCl (or LiCl),; high values mean tight binding.
B1 displayed a binding signal of 1.15 z-score.
As to B2, the binding signal is -0.377 z-score.
B3: the binding signal is -1.23 z-score.
With B4, the binding signal was -1.39 z-score.
As for B5, the binding signal is -1.88 z-score.
With B6, the binding signal was -0.107 z-score.
As for B7, the binding signal was -0.636 z-score.
Still for that read-out and setting: the same measure for B8: 0.9 z-score.
As for B9, the binding signal is -1.25 z-score.
For the molecule B10, the binding signal was found to be 0.0186 z-score.
Consider B11, for which the binding signal was -1.22 z-score.
B12: the binding signal was -0.295 z-score.
As for B13, the binding signal is -0.604 z-score.
The same measure, in the same setting: the same measure for B14: -1.71 z-score.
Consider B15, for which the binding signal is -1.81 z-score.
Regarding B16, the binding signal was -1.55 z-score.
Regarding B17, the binding signal was -2.36 z-score.
As to B18, the binding signal is -1 z-score.
For B19, the binding signal is -0.581 z-score.
As for B20, the binding signal was -1.63 z-score.
For the molecule B21, the binding signal is -0.454 z-score.
B22 yielded a binding signal of 0.109 z-score.
Still for that read-out and setting: the same measure for B23: -2.89 z-score; for B24: -0.829 z-score; for B25: -0.879 z-score.
Consider B26, for which the binding signal is -0.498 z-score.

For a further experiment, the target named is T2, DHX36. Described as above.
For the molecule B1, the binding signal was 0.53 z-score.
In the case of B2, the binding signal is -1.12 z-score.
For B3, the binding signal was -1.06 z-score.
Consider B4, for which the binding signal was -0.978 z-score.
For the molecule B5, the binding signal was -0.278 z-score.
On to B6, for which the binding signal was -1.05 z-score.
With B7, the binding signal is -0.429 z-score.
B8 had a binding signal of 0.232 z-score.
Take B9: the binding signal is -1.6 z-score.
For B10, the binding signal is -0.792 z-score.
For B11, the binding signal is -1.41 z-score.
For B12, the binding signal is -1.39 z-score.
Regarding B13, the binding signal is -0.716 z-score.
Regarding B14, the binding signal was -0.347 z-score.
Consider B15, for which the binding signal was -2 z-score.
As to B16, the binding signal was -2.22 z-score.
With B17, the binding signal was -1.71 z-score.
Regarding B18, the binding signal was -0.935 z-score.
For the molecule B19, the binding signal is -0.775 z-score.
Take B20: the binding signal was -1.03 z-score.
On to B21, for which the binding signal is -1.07 z-score.
With B22, the binding signal was -1.16 z-score.
For the molecule B23, the binding signal was -1.55 z-score.
In the case of B24, the binding signal is -1.05 z-score.
As for B25, the binding signal is -0.258 z-score.
As to B26, the binding signal was -1.16 z-score.

A further experiment deals with T3, LIN28A. Described as above.
With B2, the binding signal was -2.52 z-score.
B3: the binding signal is -2.47 z-score.
Turning to B4, the binding signal was -2.87 z-score.
In the case of B5, the binding signal is -2.41 z-score.
On the same count and under the same terms, the same measure for B6: -2.45 z-score.
Same read-out and setting: the same measure for B7: -2.41 z-score; for B9: -2.41 z-score; for B10: -2.6 z-score.
As to B12, the binding signal is -2.52 z-score.
Still for that read-out and setting: the same measure for B13: -2.68 z-score; for B14: -2.56 z-score; for B15: -2.9 z-score.
Consider B16, for which the binding signal is -2.59 z-score.
The same measure, in the same setting: the same measure for B17: -3.55 z-score; for B18: -2.4 z-score; for B19: -2.33 z-score.
On to B20, for which the binding signal was -2.35 z-score.
With B21, the binding signal was -2.8 z-score.
For the molecule B22, the binding signal is -2.48 z-score.
On to B23, for which the binding signal was -2.96 z-score.
Take B24: the binding signal is -2.41 z-score.
B25: the binding signal was -2.41 z-score.
On to B26, for which the binding signal is -2.38 z-score.
